Yeast mating assay 1: variants of the scFv Ab-14

Values reported by Engelhart et al. 2022, doi:10.1038/s41597-022-01779-4 (FLAb copy).

Antigen: PDVDLGDISGINAS, a 14-residue peptide of the SARS-CoV-2 spike HR2 region.

Parent: Ab-14, a human scFv built as VH, three GGGGS repeats, VL. Only the CDRs of the heavy chain vary.
VH: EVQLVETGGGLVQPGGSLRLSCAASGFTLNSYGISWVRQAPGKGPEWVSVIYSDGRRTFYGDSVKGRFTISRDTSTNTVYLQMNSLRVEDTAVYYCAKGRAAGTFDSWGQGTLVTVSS
VL: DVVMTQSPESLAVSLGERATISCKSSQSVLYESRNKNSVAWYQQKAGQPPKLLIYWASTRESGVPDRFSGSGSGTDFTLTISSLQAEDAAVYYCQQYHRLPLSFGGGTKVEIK

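The starting antibody came from a phage panning campaign against this peptide. In library AAYL49, one, two or three CDR residues were substituted; doubles and triples were drawn at random. The assay is AlphaSeq: two haploid yeast populations carry antibody and antigen on their surface. Binding brings cells together so that they mate, and sequencing counts the barcode pairs among the diploids. Each replicate has its own calibration line, from reference interactions of the BCL2 family. Each pool was mated in three replicate cultures.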

Positions count from residue 1 of the parent VH; D54K puts K in place of D. Numbers give log10(Kd / nM), so 0 is 1 nM and 3 is 1 µM. Smaller is tighter. Averages over replicates are reported, and they cover detected replicates only. "nd" means that the variant was in the library but no mating with the target was seen in that replicate; the authors take this as a sign of poor binding, and no number exists.

changes	log10 Kd (nM) by replicate	log10 Kd (nM), mean	control signals
D54K+K65A+R100H	nd / nd / nd	nd	1 of 9 (3.73)
Y32P+G33Q+I34T	nd / 3.88 / nd	3.88	4 of 9 (4.51)
L29G+V64Y+S107Q	2.92 / 2.38 / 2.81	2.70	3 of 9 (4.18)
S35T+V50C	nd / 3.70 / nd	3.70	2 of 9 (4.47)
Y32K+S53Q+R57F	nd / nd / nd	nd	1 of 9 (2.46)
T28S+S35N	2.89 / 2.53 / 4.15	3.19	3 of 9 (4.40)
S31E+G103V+S107Q	-0.74 / -0.31 / -0.43	-0.49	1 of 9 (2.09)
T28R+Y32P+G55D	nd / nd / nd	nd	2 of 9 (3.38)
S35D+S53R+T104K	3.04 / nd / nd	3.04	1 of 9 (2.86)
T28A+Y32R+V50A	nd / nd / nd	nd	1 of 9 (1.89)
F27K+Y32P	3.09 / 2.84 / 4.97	3.63	0 of 9
G26H+R56D+K65I	nd / nd / nd	nd	1 of 9 (3.88)
V50C+S107W	nd / nd / nd	nd	2 of 9 (3.72)
S31G+G33M+S107R	nd / nd / 5.85	5.85	5 of 9 (4.07)
F27H+T28I+Y60P	nd / 2.21 / 2.94	2.58	1 of 9 (3.85)
K65C+G103H+T104A	nd / nd / 4.45	4.45	2 of 9 (4.83)
F59S+G61E+K65L	2.14 / 1.65 / 2.28	2.02	1 of 9 (2.94)
R57E+A102R+F105M	nd / nd / nd	nd	1 of 9 (4.29)
G26C+F27G	nd / nd / nd	nd	1 of 9 (4.95)
G55Y+T58M+D62W	nd / nd / nd	nd	0 of 9
Y32F+S35L+G103E	nd / nd / nd	nd	0 of 9
S53G+F105V	nd / nd / nd	nd	0 of 9
G26K+T28D+A101Y	0.56 / 0.76 / 0.67	0.66	2 of 9 (4.81)
R56N+A102G+D106E	6.29 / 5.44 / nd	5.87	6 of 9 (4.77)
N30A+D54K+F59A	nd / nd / 5.72	5.72	4 of 9 (4.34)
D54V	4.57 / 3.91 / nd	4.24	1 of 9 (3.28)
D54Q+R57Y+G61T	nd / nd / nd	nd	0 of 9
Y32H+R56T+A102D	3.81 / nd / nd	3.81	2 of 9 (4.47)
R57E+Y60V+D62S	nd / nd / nd	nd	0 of 9
R100A+D106F	nd / nd / nd	nd	1 of 9 (4.00)
L29Y+Y32D+G61I	nd / nd / nd	nd	1 of 9 (3.81)
L29V+G55I+V64C	nd / nd / nd	nd	0 of 9
I34N+R100V+T104R	nd / nd / nd	nd	1 of 9 (3.41)
Y52A+G61M+A101C	4.74 / 4.53 / nd	4.64	3 of 9 (4.53)
R56L+V64I+D106R	3.11 / 2.41 / 3.30	2.94	3 of 9 (4.78)

The opening 5 entries, copied out:

changes	log10 Kd (nM) by replicate	log10 Kd (nM), mean	control signals
D54K+K65A+R100H	nd / nd / nd	nd	1 of 9 (3.73)
Y32P+G33Q+I34T	nd / 3.88 / nd	3.88	4 of 9 (4.51)
L29G+V64Y+S107Q	2.92 / 2.38 / 2.81	2.70	3 of 9 (4.18)
S35T+V50C	nd / 3.70 / nd	3.70	2 of 9 (4.47)
Y32K+S53Q+R57F	nd / nd / nd	nd	1 of 9 (2.46)

Nonspecific signal, from three strains lacking the peptide, appeared in 15% of pairings of library AAYL49, centred on 4.06 (5% of these signals below 2.83); values are not corrected for it. For each scFv, signals with the empty controls are counted beside the result, with their mean in brackets. For reference, the parent read 0.65 as the reference entry and 4.11 (one replicate of three) as a member of this library.